# scFv variants of Ab-14 (light chain) against a SARS-CoV-2 spike peptide

Target peptide (SARS-CoV-2 spike, HR2 region): PDVDLGDISGINAS

Each scFv is VH, a 15-residue (Gly4Ser)3 linker, VL, as in the parent Ab-14, and differs from it in the CDRs of the light chain only.
VH: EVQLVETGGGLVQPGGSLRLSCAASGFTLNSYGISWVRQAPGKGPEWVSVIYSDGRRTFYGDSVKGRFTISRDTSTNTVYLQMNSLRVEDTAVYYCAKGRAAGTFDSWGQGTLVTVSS
VL: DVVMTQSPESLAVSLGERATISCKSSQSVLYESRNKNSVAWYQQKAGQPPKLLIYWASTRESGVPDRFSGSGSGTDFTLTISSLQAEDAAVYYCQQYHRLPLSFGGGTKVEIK

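Designed CDR sequences, proposed from the first random library and measured here. Several design methods are mixed in this list. The scFvs were displayed on barcoded MATa yeast, the peptide on MATalpha yeast. Mating (16 h, 30 °C) was followed by selection of diploids and sequencing of their barcodes. Each replicate has its own calibration line, from reference interactions of the BCL2 family. There are six technical replicates.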

Variants are written as CDR1, CDR2 and CDR3 of the light chain (limits as in the source). Parent: KSSQSVLYESRNKNSVA, WASTRES, QQYHRLPLS. Affinities are written as log10 Kd with Kd in nM; a lower number is a better binder. The mean shown is taken over the replicates in which the pair was detected. A pair that was not seen in any replicate is written "nd"; this usually means weak binding, but a binder can also be missed.

| CDR-L1 | CDR-L2 | CDR-L3 | log10 Kd (nM), mean | detected |
|---|---|---|---|---|
| KISQSDLYESRNKNSVA | WASTRES | QQYHRYPLS | 2.77 | 2/6 |
| KISQSVLYESRNKNAVA | DASTRES | QQYHRLPLS | -0.48 | 6/6 |
| KLPQSVEYESRNKNSVA | NASTRES | QQYHRLPLS | -0.36 | 6/6 |
| KSIQSVLYESRDKNSVA | WASTRES | FQYHRLPLS | nd | 0/6 |
| SVAMLLDQQYAKGANIA | EAAELVV | QQYYRLPLT | 0.85 | 6/6 |
| MISQLTNMGQFAINSVA | QASERSN | QQYDRLPLI | 1.58 | 6/6 |
| MISQVLNTLYATGNNVA | DLQEREE | QQYFRLPLS | nd | 0/6 |
| HLSPSVPYESRNKNSVA | NASTREE | QDYHRLPLS | 0.04 | 6/6 |
| IVSQLMLWGLHAKNSIA | EAEMRLN | QQYERLPLF | nd | 0/6 |
| KLSQSELYESRWKNSVA | GASQRES | QQYHRLPLS | 0.37 | 6/6 |
| KSSQSVLPESDNKNSVA | GASTRES | QQYHRLPLS | 1.96 | 5/6 |
| KITATMRFEQKASNNIA | EVSMRTK | QQYYRLPLS | 1.99 | 6/6 |
| TLSHSTDVESVHKNSIA | DLMTRES | QQYDRLPLS | 0.49 | 6/6 |
| KMAQENPYESRNSNSVA | NASTREM | QQYHRLPLS | -0.10 | 6/6 |
| ALELEEMQMMKDINSIA | NTEYKTR | QQYVRLPFS | 0.53 | 6/6 |
| KISYMGEHFSTNHSAIA | QASTREQ | QQYHRLPIS | 1.63 | 6/6 |
| SLAMLLDQVYAKGSNIA | NAAELVV | QQYYRLPLT | 0.64 | 6/6 |
| MIGEMLMQGAYKRNSVA | QANIRAQ | QHYHRLPLE | 0.88 | 6/6 |
| KLSQSVLYESRNKNSVA | NANTRES | QQYHRLPLS | 0.09 | 6/6 |
| KIQQSVLYESRNENSVA | SASTRES | QQYHRLPLA | 0.03 | 6/6 |
| KSLQSVLYESRNFNSVA | DASTRED | QQYHRLPLS | 0.27 | 6/6 |
| KSSQSWLYESRNKNSVA | GASIRES | QQYHRLPLS | -0.34 | 6/6 |
| KLSQSVMYESRNKNSVA | EASTREQ | QQYHRLPLS | -0.32 | 6/6 |
| KSSQSVRYESRNKNSVA | EASTRES | QQYHHLPLS | 0.50 | 6/6 |
| KSSQSVLYESRNKNSVW | WASTRES | QQYHRLPLS | 0.57 | 6/6 |
| SCTSEMDQQQEQYNSVA | GVQHTAD | QQYGRLPLS | 1.51 | 6/6 |
| KLSQSVPYESRNTNSVA | NASTRES | QQYHRLPLS | -0.28 | 6/6 |
| KCSQGLLYENRNKPSVA | QASTREH | QQYHRLPLS | 1.47 | 6/6 |
| KLSFSELYESRNKNSVA | EASCREE | QQYHRLPLS | 0.01 | 6/6 |
| KSSHSVLNESRNKNSVA | WASTRES | QQYHRLPLS | 1.80 | 6/6 |
| KSSQSWLYESRNKNSVA | WASTRES | QQYLRLPLS | 1.88 | 1/6 |
| MMSQVTGLGQRTRNNVA | QTSMRET | QQYDRLPLI | 0.47 | 6/6 |
| TISQTFMMENQFKNSVA | QASTRES | QCYDRLPLS | 1.42 | 3/6 |
| IFSQSVLMGNLTKSSVA | QASTRFS | QQYHRLPLI | 1.15 | 6/6 |
| KLREVQHVESKQKNNVA | DNSTRES | QDYHRLPLS | 2.33 | 6/6 |
| KISQSVLYESRNKNSVA | DASTRES | QAYHRLPLS | 0.07 | 6/6 |
| KLMQSELYESRNKNSVA | NASQRLS | QQYHRLPLS | -0.04 | 6/6 |
| KSSESGLYESQNKNSVA | WASTRES | SQYHRLPPS | nd | 0/6 |
| IVSQLMLVGMHAKNSIA | EASTRNN | QQYERLPLF | 1.33 | 6/6 |
| KVSIEVLMGDRNKNSVA | KASTRES | QQYHRLPLS | 0.18 | 6/6 |
| MISQIYNMGTFAINSVA | QASIRNA | QQYDRLPLT | nd | 0/6 |
| KSSQSELYESRNKNSVA | GASTRES | QQYVRLPLS | 0.29 | 6/6 |
| IVSQLMLWGYHASNSIA | EAQTRLN | QQYDRLPLI | 2.76 | 1/6 |
| TVSQVTGMLSHNKNSVA | DMNTRGS | QQYDRLPLS | 0.47 | 6/6 |
| HSSPSVEYESRNKNSVA | NASYRES | QQYHRLPLS | 0.48 | 6/6 |
| KLSQSHLYESRMKNSVA | EASTRES | QQYHRLPLS | 0.46 | 6/6 |
| KSSQSVLYESRNFNSVA | WAGTRES | QQYHRLPLS | 2.34 | 1/6 |
| TISQLTSLFSQSINNVA | EVSMREE | QQYDRLPLA | 1.38 | 6/6 |
| KSSQSVLYIERNKNSVA | AASTRES | QQYHRLPLS | 2.09 | 1/6 |
| KSSHSVDLESRNKNSVA | AASTRES | QQYHRLELS | 2.55 | 1/6 |
| KLMQSWLYESRNKNSVA | NASQRES | QQYHRLPLS | -0.11 | 6/6 |
| HMSAITYGGMRQRNSVA | QMTTREN | QQYDHLPLS | 1.59 | 6/6 |
| KSSQSVLSESRNKNSVA | QASTRES | QQYHRLPLS | 0.75 | 6/6 |
| KFSQSVLYESRNKNSVA | WASTRNS | QQYHRLPLS | 1.22 | 4/6 |
| KLSQSVEYESRNKNSVA | DAQQRES | QQYHRLPLS | -0.18 | 6/6 |
| KSSVSDLYESRNKNSVA | WASTRES | QQYHRLPLS | 1.50 | 6/6 |
| KMSQSVLYESRNKNSVA | NASQRES | QQYHRLPLS | 0.15 | 6/6 |
| MISQLMNMGQFAINSVA | QASLRCN | QQYFRLPLM | 2.02 | 2/6 |
| KSSKSVLFESRNKNSVA | NASTREE | QQYHRLPLS | 0.68 | 6/6 |
| KLQFSMLYESRNVNSVA | DASKRES | QAYHRLPLS | 0.28 | 6/6 |
| KLSQSFLYESRNFNSVA | GASTRES | QQYHRLPLS | -0.07 | 6/6 |

Extract of 10 entries:

| CDR-L1 | CDR-L2 | CDR-L3 | log10 Kd (nM), mean | detected |
|---|---|---|---|---|
| KMSQSVLYESRNKNSVA | NASQRES | QQYHRLPLS | 0.15 | 6/6 |
| KSSQSVLSESRNKNSVA | QASTRES | QQYHRLPLS | 0.75 | 6/6 |
| HLSPSVPYESRNKNSVA | NASTREE | QDYHRLPLS | 0.04 | 6/6 |
| KLPQSVEYESRNKNSVA | NASTRES | QQYHRLPLS | -0.36 | 6/6 |
| TISQTFMMENQFKNSVA | QASTRES | QCYDRLPLS | 1.42 | 3/6 |
| SLAMLLDQVYAKGSNIA | NAAELVV | QQYYRLPLT | 0.64 | 6/6 |
| MISQVLNTLYATGNNVA | DLQEREE | QQYFRLPLS | nd | 0/6 |
| KLREVQHVESKQKNNVA | DNSTRES | QDYHRLPLS | 2.33 | 6/6 |
| ALELEEMQMMKDINSIA | NTEYKTR | QQYVRLPFS | 0.53 | 6/6 |
| MIGEMLMQGAYKRNSVA | QANIRAQ | QHYHRLPLE | 0.88 | 6/6 |

The parent sequence was in this pool as ten entries: three were never detected, three once, and four in most replicates, with averages from 0.34 to 2.37. Three control strains display no target. For all light chain designs, 4% of the pairings with them gave a signal, with a median of 2.64 and one signal in twenty below 1.59, so weak values seen in few replicates may be background. The authors averaged sequences with at least three values out of six and counted those with two or fewer as poor binders. A sequence measured in both rounds can read differently, since the two assays cover different ranges.

From the AlphaSeq antibody data of Li et al. 2023 (doi:10.1038/s41467-023-39022-2), copy in the FLAb collection.